According to BindingDB's records for doi:10.1074/jbc.273.49.32608 (Merck Research Laboratories, 1998):

Target: T1, Caspase-3 (Homo sapiens, UniProt P42574)
T1 sequence (P42574 whole entry): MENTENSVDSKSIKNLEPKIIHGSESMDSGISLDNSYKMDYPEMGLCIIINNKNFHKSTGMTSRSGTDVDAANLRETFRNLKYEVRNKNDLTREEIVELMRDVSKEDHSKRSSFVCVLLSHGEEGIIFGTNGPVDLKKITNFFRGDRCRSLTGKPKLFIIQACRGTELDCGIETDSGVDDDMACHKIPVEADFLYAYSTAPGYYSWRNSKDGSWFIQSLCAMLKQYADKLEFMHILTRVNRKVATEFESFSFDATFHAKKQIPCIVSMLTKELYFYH

## CC(=O)N[C@@H](CC(=O)O)C(=O)N[C@@H](CCC(=O)O)C(=O)N[C@H](C(=O)N[C@H](C=O)CC(=O)O)C(C)C [(4S)-4-{[(1S)-1-{[(2S)-1-carboxy-3-oxopropan-2-yl]carbamoyl}-2-methylpropyl]carbamoyl}-4-[(3S)-3-acetamido-3-formamidopropanoic acid]butanoic acid]
  Ki: 0.23 nM
